According to patent US10799511B2, “Methods for reducing or ameliorating mortality and/or morbidity due to chlorine inhalation” (dated 2020):

Experiments:
[1] = system: animals exposed to toxic inhalational levels of chlorine; experiment: Ability of therapeutic agents to stabilize and/or rescue animals exposed to toxic inhalational levels of chlorine; conditions: toxic/high inhalational levels of chlorine
[2] = system: Sprague-Dawley rats exposed to chlorine; experiment: Survival after severe chlorine inhalation; conditions: FIG. 7 legend
[3] = system: Rats exposed to chlorine (cortical EEG); experiment: Video-electroencephalogram (EEG) after chlorine inhalation; conditions: midazolam IM 1 mg/kg 15 min after high dose chlorine inhalation, FIGS. 5A-5E

Compound	ability to stabilize and/or rescue chlorine-exposed animals [1]	other results
2-PAM	ineffective	–
CN1[C@@H]2C[C@@H](OC(=O)[C@H](CO)c3ccccc3)C[C@H]1C1OC12 (stereo partly drawn)	beneficial effects	–
CN1[C@@H]2CC[C@H]1C[C@@H](OC(=O)C(CO)c1ccccc1)C2 (stereo partly drawn)	beneficial effects	–
Racemic epinephrine	ineffective	–
Bosantan	ineffective	–
Cc1ncc2n1-c1ccc(Cl)cc1C(c1ccccc1F)=NC2	beneficial effects	survival after severe chlorine inhalation (in words) [2]: improves survival; epileptiform activity (EEG) [3]: decreased epileptiform activity; epileptiform activity (EEG) ([3]; listed as Midazolam): clearly reduces epileptiform activity
CC(CCc1ccc(O)cc1)NCCc1ccc(O)c(O)c1 (stereo not drawn)	ineffective	–
manganese(III)meso-tetrakis(N,N′-diethyl-1,3-imidazolium-2-yl)porphyrin	ineffective	–
Sodium Bicarbonate	ineffective	–
O=[N+]([O-])c1nccn1CC(O)CN1CCCCC1 (stereo not drawn)	ineffective	–
Cobinamide	ineffective	–
COc1ccccc1OCC(O)CN1CCN(CC(=O)Nc2c(C)cccc2C)CC1 (stereo not drawn)	ineffective	–
